According to paper PMC5856381 (2018):
Blank lines part the entries; values can stand above or below the binder they belong to.

The chains behind the UniProt entries cited, without tags or fusion partners.
UniProt P69905, whole entry, chain 1 of 2: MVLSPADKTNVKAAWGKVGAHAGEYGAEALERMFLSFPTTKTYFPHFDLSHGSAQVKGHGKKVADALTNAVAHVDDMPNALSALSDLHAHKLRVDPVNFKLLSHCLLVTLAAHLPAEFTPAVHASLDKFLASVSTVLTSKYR
hemoglobin (Hb), human, cell-free, UniProt P68871, whole entry, chain 2 of 2: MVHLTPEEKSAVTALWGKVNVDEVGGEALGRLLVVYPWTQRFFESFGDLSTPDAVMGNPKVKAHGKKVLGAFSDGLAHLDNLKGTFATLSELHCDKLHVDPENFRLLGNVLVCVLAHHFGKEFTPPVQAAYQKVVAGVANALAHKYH

How the values were obtained:
[1] = molecular target: T1, hemoglobin (Hb), human, cell-free (human, UniProt P69905 1-142; P68871 1-147); experiment: SPR
[2] = molecular target: T1, hemoglobin (Hb), human, cell-free; experiment: SPR; remark: listed apart in the source

koff [1]: 0.0159 s⁻¹ | Kd [2]: 2.11 mM
B1: cleavage-site mutated recombinant haptoglobin Hp1S (Q101A, R102A), uncleaved proHp (natural protein)
chain: VDSGNDVTDIADDGCPKPPEIAHGYVEHSVRYQCKNYYKLRTEGDGVYTLNNEKQWINKAVGDKLPECEAVCGKPKNPANPVAAILGGHLDAKGSFPWQAKMVSHHNLTTGATLINEQWLLTTAKNLFLNHSENATAKDIAPTLTLYVGKKQLVEIEKVVLHPNYSQVDIGLIKLKQKVSVNERVMPICLPSKDYAEVGRVGYVSGWGRNANFKFTDHLKYVMLPVADQDQCIRHYEGSTVPEKKTPKSPVGVQPILNEHTFCAGMSKYQEDTCYGDAGSAFAVHDLEEDTWYATGILSFDKSCAVAEYGVYVKVTSIQDWVQKTIAEN
modifications: Uncleaved single-chain proHp1S with signal peptide removed; paper's Q101/R102 (precursor Hp1 numbering) = Q160/R161 of P00738; disulfide-linked dimer; N-glycosylated; C-terminal 8xHis tag omitted

koff [1]: < 5e-05 s⁻¹ | Kd [2]: < 5e-08 mM
B3: human plasma derived haptoglobin (predominantly phenotype 2–2) (natural protein)
chain 1: VDSGNDVTDIADDGCPKPPEIAHGYVEHSVRYQCKNYYKLRTEGDGVYTLNDKKQWINKAVGDKLPECEADDGCPKPPEIAHGYVEHSVRYQCKNYYKLRTEGDGVYTLNNEKQWINKAVGDKLPECEAVCGKPKNPANPVQ
chain 2: ILGGHLDAKGSFPWQAKMVSHHNLTTGATLINEQWLLTTAKNLFLNHSENATAKDIAPTLTLYVGKKQLVEIEKVVLHPNYSQVDIGLIKLKQKVSVNERVMPICLPSKDYAEVGRVGYVSGWGRNANFKFTDHLKYVMLPVADQDQCIRHYEGSTVPEKKTPKSPVGVQPILNEHTFCAGMSKYQEDTCYGDAGSAFAVHDLEEDTWYATGILSFDKSCAVAEYGVYVKVTSIQDWVQKTIAEN

koff [1]: < 5e-05 s⁻¹ | Kd [2]: < 4.8e-08 mM
B4: recombinant haptoglobin Hp1S, C1r-LP processed (rHp 1–1) (natural protein)
chain 1: VDSGNDVTDIADDGCPKPPEIAHGYVEHSVRYQCKNYYKLRTEGDGVYTLNNEKQWINKAVGDKLPECEAVCGKPKNPANPVQR
chain 2: B3 chain 2

Continued, binder first:

B2: cleavage-site mutated recombinant haptoglobin Hp2FS (Q160A, R161A), uncleaved proHp (natural protein)
chain: VDSGNDVTDIADDGCPKPPEIAHGYVEHSVRYQCKNYYKLRTEGDGVYTLNDKKQWINKAVGDKLPECEADDGCPKPPEIAHGYVEHSVRYQCKNYYKLRTEGDGVYTLNNEKQWINKAVGDKLPECEAVCGKPKNPANPVAAILGGHLDAKGSFPWQAKMVSHHNLTTGATLINEQWLLTTAKNLFLNHSENATAKDIAPTLTLYVGKKQLVEIEKVVLHPNYSQVDIGLIKLKQKVSVNERVMPICLPSKDYAEVGRVGYVSGWGRNANFKFTDHLKYVMLPVADQDQCIRHYEGSTVPEKKTPKSPVGVQPILNEHTFCAGMSKYQEDTCYGDAGSAFAVHDLEEDTWYATGILSFDKSCAVAEYGVYVKVTSIQDWVQKTIAEN
modifications: Uncleaved single-chain proHp2FS with signal peptide removed; heterogeneous disulfide-linked multimers (n variable); N-glycosylated; C-terminal 8xHis tag omitted
koff [1]: 0.0159 s⁻¹ | Kd [2]: 1.9 mM

B5: recombinant haptoglobin Hp2FS, C1r-LP processed (rHp 2–2) (natural protein)
chain 1: B3 chain 1
chain 2: B3 chain 2
koff [1]: < 5e-05 s⁻¹ | Kd [2]: < 5.4e-08 mM
